Measurements taken from PubChem BioAssay (NCI).
The entries are a selection whose mix differs from that of the whole data set.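 Assay: single dose, 48 h. Readout: percent growth (0 = no net growth; negative = cell death). Active: <10.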 Activity calls are given as the source filed them.

What was measured:
Experiment in all cases: NCI-60 one-dose screen, 48 h (100 = growth as untreated, 0 = no growth, -100 = all killed)
Details in all cases: 10 µM unless noted
OVCAR-8 ovarian = system: OVCAR-8 ovarian
OVCAR-5 ovarian = system: OVCAR-5 ovarian
OVCAR-4 ovarian = system: OVCAR-4 ovarian
SK-OV-3 ovarian = system: SK-OV-3 ovarian
IGROV1 ovarian = system: IGROV1 ovarian
OVCAR-3 ovarian = system: OVCAR-3 ovarian
HS 578T breast = system: HS 578T breast
NCI/ADR-RES ovarian = system: NCI/ADR-RES ovarian
T-47D breast = system: T-47D breast
MDA-MB-435 melanoma = system: MDA-MB-435 melanoma
SW-620 colon = system: SW-620 colon
MCF7 breast = system: MCF7 breast
HCT-116 colon = system: HCT-116 colon
HCC-2998 colon = system: HCC-2998 colon
KM12 colon = system: KM12 colon
MOLT-4 leukemia = system: MOLT-4 leukemia
RPMI-8226 leukemia = system: RPMI-8226 leukemia
BT-549 breast = system: BT-549 breast
SR leukemia = system: SR leukemia

Measured: growth

O=C(Nc1cc([As](=O)(O)O)ccc1O)c1ccccc1
inactive: OVCAR-8 ovarian 98.4% | OVCAR-5 ovarian 103% | OVCAR-4 ovarian 106% | SK-OV-3 ovarian 108% | IGROV1 ovarian 117% | OVCAR-3 ovarian 120% | HS 578T breast 112% | NCI/ADR-RES ovarian 101% | T-47D breast 106% | MDA-MB-435 melanoma 113% | SW-620 colon 106% | MCF7 breast 107% | HCT-116 colon 97.5% | HCC-2998 colon 95.9% | KM12 colon 108%

O=C(O)COc1ccc([As](=O)(O)O)cc1[N+](=O)[O-]
inactive: MOLT-4 leukemia 107% | RPMI-8226 leukemia 110% | OVCAR-8 ovarian 115% | OVCAR-5 ovarian 86.5% | OVCAR-4 ovarian 83.9% | SK-OV-3 ovarian 112% | IGROV1 ovarian 128% | OVCAR-3 ovarian 117% | NCI/ADR-RES ovarian 96.4% | T-47D breast 97.4% | BT-549 breast 113% | MDA-MB-435 melanoma 115% | SW-620 colon 98.4% | MCF7 breast 97.5% | HCT-116 colon 94.6% | HCC-2998 colon 96.1% | KM12 colon 109%

Cc1c([N+](=O)[O-])cc(C(=O)c2cc([N+](=O)[O-])cc([N+](=O)[O-])c2)cc1[N+](=O)[O-]
inactive: MOLT-4 leukemia 85% | RPMI-8226 leukemia 85.9% | OVCAR-8 ovarian 98% | OVCAR-5 ovarian 122% | OVCAR-4 ovarian 97.1% | SK-OV-3 ovarian 124% | IGROV1 ovarian 97.2% | OVCAR-3 ovarian 87.3% | HS 578T breast 119% | NCI/ADR-RES ovarian 91.5% | T-47D breast 113% | BT-549 breast 83.2% | MDA-MB-435 melanoma 104% | SW-620 colon 111% | MCF7 breast 82.7% | HCT-116 colon 92% | KM12 colon 110%

Nc1ccccc1[As](=O)(O)c1ccccc1
inactive: MOLT-4 leukemia 108% | RPMI-8226 leukemia 90.4% | OVCAR-8 ovarian 101% | OVCAR-5 ovarian 116% | OVCAR-4 ovarian 120% | SK-OV-3 ovarian 110% | IGROV1 ovarian 75% | OVCAR-3 ovarian 112% | HS 578T breast 71.6% | NCI/ADR-RES ovarian 95.4% | T-47D breast 99.1% | BT-549 breast 109% | MDA-MB-435 melanoma 103% | SW-620 colon 97.2% | MCF7 breast 96.5% | HCT-116 colon 103% | HCC-2998 colon 107% | KM12 colon 98%

NC1=NCC(Br)CS1 (configuration not stated)
inactive: MOLT-4 leukemia 99% | RPMI-8226 leukemia 92.4% | OVCAR-8 ovarian 109% | OVCAR-5 ovarian 106% | OVCAR-4 ovarian 92.2% | SK-OV-3 ovarian 121% | OVCAR-3 ovarian 106% | HS 578T breast 102% | NCI/ADR-RES ovarian 104% | T-47D breast 95.1% | BT-549 breast 122% | MDA-MB-435 melanoma 89.9% | SW-620 colon 94.4% | MCF7 breast 107% | HCT-116 colon 100% | HCC-2998 colon 108% | KM12 colon 96.2%

COC(=O)c1ccc(N2CCOP2(=O)Cl)cc1O (configuration not stated)
inactive: MOLT-4 leukemia 92.5% | RPMI-8226 leukemia 93.8% | OVCAR-8 ovarian 100% | OVCAR-5 ovarian 97.1% | OVCAR-4 ovarian 103% | SK-OV-3 ovarian 112% | IGROV1 ovarian 110% | OVCAR-3 ovarian 116% | HS 578T breast 110% | NCI/ADR-RES ovarian 103% | T-47D breast 107% | BT-549 breast 83.6% | MDA-MB-435 melanoma 99.9% | SW-620 colon 112% | MCF7 breast 96.7% | HCT-116 colon 99.4% | KM12 colon 111%

COC(=O)C1(C)COP(=O)(N2CCCCCC2)OC1 (configuration not stated)
inactive: MOLT-4 leukemia 94.7% | RPMI-8226 leukemia 123% | OVCAR-8 ovarian 105% | OVCAR-5 ovarian 114% | OVCAR-4 ovarian 110% | SK-OV-3 ovarian 91.7% | IGROV1 ovarian 110% | OVCAR-3 ovarian 110% | HS 578T breast 109% | NCI/ADR-RES ovarian 99.4% | T-47D breast 98% | BT-549 breast 107% | MDA-MB-435 melanoma 107% | SW-620 colon 108% | MCF7 breast 103% | HCT-116 colon 101% | HCC-2998 colon 94.8% | KM12 colon 109%

O=[As]1(O)c2ccccc2-c2ccccc21
inactive: MOLT-4 leukemia 83.9% | RPMI-8226 leukemia 99% | OVCAR-8 ovarian 99.5% | OVCAR-5 ovarian 93.5% | OVCAR-4 ovarian 97.3% | SK-OV-3 ovarian 114% | IGROV1 ovarian 110% | OVCAR-3 ovarian 109% | NCI/ADR-RES ovarian 93% | T-47D breast 110% | BT-549 breast 111% | MDA-MB-435 melanoma 110% | SW-620 colon 106% | MCF7 breast 97.8% | HCT-116 colon 89.5% | HCC-2998 colon 140% | KM12 colon 109%

CN1C(=O)N(C)P12(Cl)N(C)C(=O)N2C
inactive: MOLT-4 leukemia 102% | RPMI-8226 leukemia 102% | OVCAR-8 ovarian 101% | OVCAR-5 ovarian 117% | OVCAR-4 ovarian 108% | SK-OV-3 ovarian 112% | IGROV1 ovarian 108% | OVCAR-3 ovarian 114% | HS 578T breast 98.7% | NCI/ADR-RES ovarian 106% | T-47D breast 103% | BT-549 breast 110% | MDA-MB-435 melanoma 112% | SW-620 colon 102% | MCF7 breast 101% | HCT-116 colon 105% | HCC-2998 colon 105% | KM12 colon 109%

O=c1ccc(Oc2ccc([N+](=O)[O-])cc2[N+](=O)[O-])nn1-c1ccc([N+](=O)[O-])cc1[N+](=O)[O-]
inactive: SR leukemia 13.9% | OVCAR-8 ovarian 62.6% | OVCAR-5 ovarian 82.4% | SK-OV-3 ovarian 88.7% | IGROV1 ovarian 82.4% | HS 578T breast 48.7% | NCI/ADR-RES ovarian 66.3% | BT-549 breast 64.4% | MDA-MB-435 melanoma 69.3% | HCC-2998 colon 73.1% | KM12 colon 88.7%
active: MOLT-4 leukemia -4.14% | OVCAR-4 ovarian -94.2% | OVCAR-3 ovarian -94.6% | T-47D breast -36.8% | SW-620 colon -66.1% | MCF7 breast -42% | HCT-116 colon -73.2%
